Experimental data as given in patent publication US6586413B2, “Methods and compositions for reducing ischemic injury of the heart by administering adenosine receptor agonists and antagonists” (The United States of America as represented by the …, priority 1999, dated 2003).

The chains behind the UniProt entries cited, without tags or fusion partners.
UniProt P0DMS8, whole entry: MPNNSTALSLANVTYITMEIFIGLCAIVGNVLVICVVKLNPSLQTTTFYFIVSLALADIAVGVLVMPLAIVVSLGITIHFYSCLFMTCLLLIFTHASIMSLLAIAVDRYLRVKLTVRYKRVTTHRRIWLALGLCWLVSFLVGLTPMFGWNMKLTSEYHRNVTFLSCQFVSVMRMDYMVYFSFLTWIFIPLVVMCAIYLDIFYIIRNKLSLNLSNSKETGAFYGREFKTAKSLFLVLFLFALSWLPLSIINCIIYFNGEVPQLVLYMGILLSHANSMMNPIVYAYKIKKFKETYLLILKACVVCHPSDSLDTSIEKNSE

Target: T1, human adenosine A3 receptor (Homo sapiens, UniProt P0DMS8)
T1 construct: full length cDNA encoding human adenosine A3 receptor subcloned in pcDNA3; expressed in transfected cells; host or cells: chick embryo atrial myocytes, transient calcium phosphate transfection with pcDNA3/hA3R
Assay: Preconditioning in chick atrial myocytes transfected with the human A3 receptor
Format: cell-based
Conditions: hA3R-transfected vs vector-transfected atrial myocytes
Description: Transfection of chick atrial myocytes with the human A3 receptor—Atrial cells were cultured from chick embryos 14 days in ovo and transiently transfected with pcDNA3 (empty vector) or with pcDNA3/hA3R (full length cDNA encoding human adenosine A3 receptor subcloned in pcDNA3) using the calcium phosphate precipitation method. Forty-eight hours after transfection, the cells were exposed to the compounds of the invention and the percentage of myocytes killed during simulated ischemia was determined.
The transfected myocytes were then exposed to the compound for 5 minutes, which was followed by replacement with fresh media and myocytes exposed to normal conditions (non-ischemic) for 10 minutes prior to being exposed to ninety minutes of ischemia. The decrease in the number of myocytes killed in A3 receptor cDNA-transfected myocytes as compared to vector-transfected myocytes was plotted as a function of the concentration of the compound. This decrease in myocytes killed represented an index of the protection mediated via the human adenosine A3 receptor.

CNC(=O)[C@H]1O[C@@H](n2cnc3c(NCc4cccc(I)c4)nc(Cl)nc32)[C@H](O)[C@@H]1O [Cl-IB-MECA, 2-chloro-N^6-(3-iodobenzyl)adenosine-5′-N-methyluronamide]
preconditioning / protection mediated via human adenosine A3 receptor: significantly greater in the cells transfected with the human A3 receptor encoding cDNA than in untransfected or cells transfected with empty vector
